Source: patent publication US7414062B2, “Triazaspiro compounds useful for treating or preventing pain” (dated 2008)

Chains of the proteins cited; added tags and fusions are not shown. Lines headed by an entry give the natural chain unless they say otherwise; changes in a name come on top.
UniProt P41146: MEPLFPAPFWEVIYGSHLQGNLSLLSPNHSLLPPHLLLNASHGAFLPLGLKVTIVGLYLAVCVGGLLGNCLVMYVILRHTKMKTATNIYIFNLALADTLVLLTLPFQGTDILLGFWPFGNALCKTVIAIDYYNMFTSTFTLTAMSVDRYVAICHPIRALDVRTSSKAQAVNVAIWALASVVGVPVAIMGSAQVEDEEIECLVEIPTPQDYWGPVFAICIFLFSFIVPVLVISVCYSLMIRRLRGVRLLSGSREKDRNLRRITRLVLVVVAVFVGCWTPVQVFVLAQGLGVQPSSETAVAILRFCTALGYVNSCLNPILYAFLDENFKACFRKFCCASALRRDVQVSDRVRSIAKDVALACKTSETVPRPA

Molecular target: ORL-1 receptor (Homo sapiens, UniProt P41146)
Experiment: [35S]GTPgS functional assay, ORL-1 receptor membranes
Conditions: read-out: ORL-1 GTP EC50

CCOC(=O)CN1CN(c2ccccc2)C2(CCN(CCC(c3ccccc3)c3ccccc3)CC2)C1=O
EC50: 0.071 µM
